Test results: patent US6686371B2, “Non-steroidal, tetracylic compounds for estrogen-related treatments” (Akzo Nobel N.V., priority 2000, dated 2004)

Amino acid sequences for entries named in this document (tags omitted).
UniProt Q92731, whole entry: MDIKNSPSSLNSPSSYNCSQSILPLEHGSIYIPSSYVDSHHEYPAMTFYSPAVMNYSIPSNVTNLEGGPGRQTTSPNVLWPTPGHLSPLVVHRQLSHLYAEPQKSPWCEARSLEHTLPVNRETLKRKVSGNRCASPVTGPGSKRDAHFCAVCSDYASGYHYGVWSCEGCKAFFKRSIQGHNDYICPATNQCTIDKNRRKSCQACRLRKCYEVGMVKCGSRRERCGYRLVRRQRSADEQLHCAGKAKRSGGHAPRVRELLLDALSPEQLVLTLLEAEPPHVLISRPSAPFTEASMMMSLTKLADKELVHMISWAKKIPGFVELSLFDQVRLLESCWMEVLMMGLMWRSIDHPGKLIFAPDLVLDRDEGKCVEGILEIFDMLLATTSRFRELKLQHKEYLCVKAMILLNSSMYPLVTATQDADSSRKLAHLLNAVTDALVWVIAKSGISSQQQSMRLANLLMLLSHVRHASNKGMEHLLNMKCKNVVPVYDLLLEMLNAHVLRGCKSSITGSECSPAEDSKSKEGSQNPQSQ

Biological target: T1, human estrogen receptor β receptor (hERβ) (Homo sapiens, UniProt Q92731)
T1 construct: expressed in transfected cells; host or cells: Chinese hamster ovary (CHO) cells, stably co-transfected with hERβ, rat oxytocin promoter and luciferase reporter
Assay: competitive binding to cytoplasmic human estrogen receptor β from recombinant CHO cells
Settings: % relative to 17β-estradiol; cytosol of recombinant CHO cells; Table 2
Description: Compounds are tested for their estrogen receptor activity in a binding assay and in a transactivation assay.
Determination of competitive binding to cytoplasmic human estrogen receptor α or β from recombinant CHO cells is used to estimate the relative affinity (potency ratio) of a test compound for estrogen receptors present in the cytosol of recombinant Chinese hamster ovary (CHO) cells, stably transfected with the human estrogen receptor α (hERα) or β receptor (hERβ), as compared with estradiol (E2).

10-chloro-1,1-dimethyl-2,8-dihydroxy-11H-indeno[1,2-b]quinoline [Compound 7d]
Binding ERβ: +++ (between 3.5-8%)
